The chains behind the UniProt entries cited, without tags or fusion partners.
UniProt O35433, whole entry: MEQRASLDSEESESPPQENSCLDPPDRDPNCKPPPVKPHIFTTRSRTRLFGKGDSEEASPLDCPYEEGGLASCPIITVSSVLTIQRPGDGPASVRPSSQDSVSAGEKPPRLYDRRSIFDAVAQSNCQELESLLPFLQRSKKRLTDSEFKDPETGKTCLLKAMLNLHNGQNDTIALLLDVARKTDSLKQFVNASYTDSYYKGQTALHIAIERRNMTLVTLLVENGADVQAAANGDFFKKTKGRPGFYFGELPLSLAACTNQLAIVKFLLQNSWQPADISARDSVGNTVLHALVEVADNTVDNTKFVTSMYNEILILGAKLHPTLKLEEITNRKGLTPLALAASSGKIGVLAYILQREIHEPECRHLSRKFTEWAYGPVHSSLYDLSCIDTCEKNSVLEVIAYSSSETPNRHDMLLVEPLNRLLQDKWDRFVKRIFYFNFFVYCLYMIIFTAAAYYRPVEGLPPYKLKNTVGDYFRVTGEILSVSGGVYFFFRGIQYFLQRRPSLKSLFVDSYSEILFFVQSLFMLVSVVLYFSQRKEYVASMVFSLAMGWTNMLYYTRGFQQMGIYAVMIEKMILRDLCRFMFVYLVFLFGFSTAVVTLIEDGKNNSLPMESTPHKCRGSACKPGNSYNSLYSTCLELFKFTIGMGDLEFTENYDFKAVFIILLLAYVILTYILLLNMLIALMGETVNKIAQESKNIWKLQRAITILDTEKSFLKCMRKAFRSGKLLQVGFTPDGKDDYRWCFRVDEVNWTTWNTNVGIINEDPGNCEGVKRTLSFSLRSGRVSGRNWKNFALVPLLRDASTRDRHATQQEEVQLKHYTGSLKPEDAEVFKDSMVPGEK

According to patent publication US6476076B1 (priority 1999, dated 2002):

Target: CAP-activated channels in cultured neonatal rat dorsal root ganglion (DRG) neurons (Rattus norvegicus, UniProt O35433)
Test: Capsaicin-activated single channel assay
Design: key to the marks not given beside the values
Conditions: relative difference in ion conductance compared to CAP

SMILES: COc1cc(CC(=O)NCC(COC(=O)C(C)(C)C)Cc2ccccc2)ccc1O (stereo not shown)
- Activations: ++
